{"source": "BindingDB's records for 26869193", "biological_target": "Acetylcholinesterase (Electrophorus electricus, UniProt O42275)", "data": [{"compound": "Cc1c(OC(=O)N(C)C)c(=O)ccn1-c1ccc(OC(=O)N(C)C)cc1", "values": [{"measurement": "IC50", "value": 252, "unit": "µM"}]}]}
